Here are results for one molecule from paper PMC11056026, “The Evaluation of Teleost-Derived Antimicrobial Peptides Against Neisseria gonorrhoeae” (Cureus, 2024).

The subject of data set [1] is WHO gonococcal reference strain Z (WHO Z). The note with it: GCP broth, 10^5 CFU/mL, 24 h, 37°C, 5% CO2, lowest concentration reducing >=90% of bacteria vs non-AMP control, means of three independent experiments.
Data set [2] deals with ME180 endocervical epithelial cells. The note with it: 10 μg/mL AMP, 24 hours; three independent experiments.

Molecules are shown by their SMILES.

For the molecule `CC[C@H](C)[C@H](NC(=O)[C@H](CCCCN)NC(=O)[C@@H]1CCCN1C(=O)[C@@H](NC(=O)[C@H](CC(C)C)NC(=O)[C@H](C)NC(=O)[C@H](Cc1ccccc1)NC(=O)[C@H](Cc1ccccc1)NC(=O)CN)[C@@H](C)CC)C(=O)N[C@H](C(=O)N[C@@H](CO)C(=O)N[C@@H](CO)C(=O)N1CCC[C@H]1C(=O)N[C@@H](CC(C)C)C(=O)N[C@@H](Cc1ccccc1)C(=O)N[C@@H](CCCCN)C(=O)N[C@H](C(=O)N[C@@H](CC(C)C)C(=O)N[C@@H](CC(C)C)C(=O)N[C@@H](CO)C(=O)N[C@@H](C)C(=O)N[C@H](C(=O)NCC(=O)N[C@@H](CO)C(=O)N[C@@H](C)C(=O)N[C@@H](CC(C)C)C(=O)N[C@@H](CO)C(=O)N[C@@H](CO)C(=O)N[C@@H](CO)C(=O)NCC(=O)NCC(=O)N[C@@H](CCC(N)=O)C(=O)N[C@@H](CCC(=O)O)C(=O)O)C(C)C)[C@@H](C)O)[C@@H](C)CC` [PB2], the “MIC of AMP” value in data set [1] was determined as 20 µg/mL. In data set [2], the “Cell survival of ME180 cells vs non-treatment control (CCK-8)” value is “No significant difference”.
